Test results reported in publication PMC6155600, “Design, Synthesis and Cellular Characterization of a Dual Inhibitor of 5-Lipoxygenase and Soluble Epoxide Hydrolase” (Molecules : A Journal of Synthetic Chemistry and Natural …, 2016).

By UniProt entry, the sequences of proteins in these tests, tags left out.
UniProt P34913, whole entry: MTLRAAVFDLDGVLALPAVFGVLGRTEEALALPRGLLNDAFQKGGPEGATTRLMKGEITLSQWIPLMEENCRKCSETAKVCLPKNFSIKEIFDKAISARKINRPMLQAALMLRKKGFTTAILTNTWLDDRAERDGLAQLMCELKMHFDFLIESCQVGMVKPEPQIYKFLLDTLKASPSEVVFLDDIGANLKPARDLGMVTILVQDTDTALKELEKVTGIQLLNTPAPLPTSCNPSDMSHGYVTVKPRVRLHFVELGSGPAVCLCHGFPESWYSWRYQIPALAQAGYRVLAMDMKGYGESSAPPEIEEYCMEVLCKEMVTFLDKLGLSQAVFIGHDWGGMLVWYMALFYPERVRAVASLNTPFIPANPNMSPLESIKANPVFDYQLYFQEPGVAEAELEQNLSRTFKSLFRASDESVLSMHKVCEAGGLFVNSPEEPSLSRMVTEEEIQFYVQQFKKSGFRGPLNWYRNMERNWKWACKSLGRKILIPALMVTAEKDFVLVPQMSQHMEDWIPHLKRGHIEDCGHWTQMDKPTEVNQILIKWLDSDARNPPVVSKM

Target: T1, soluble epoxide hydrolase (sEH) (Homo sapiens, UniProt P34913)
T1 construct: gene EPHX2
Assay: fluorescence-based enzyme activity assay with recombinant human sEH (PHOME substrate)
Type: biochemical

O=C(Nc1ccc(I)cc1)NC1CCCCC1 [CIU, N-cyclohexyl-N′-(4-iodophenyl)urea, reference compound]
IC50: 140 nM
